Substrate in the data set: O=C(O)c1ccc(C(=O)OCCO)cc1
The experiment in a line: Michaelis-Menten kinetics of MHETase and variants (substrate inhibition model). It counts as biochemical, Ideonella sakaiensis 201-F6. As to conditions: other: MHET 10-250 μM, 5 nM enzyme, pH 7.5, 30° C.

In general, Km refers to the concentration of substrate that gives half-maximal velocity. For orientation: Vmax means the top rate of the reaction or transport when substrate is in excess. A word on the kcat/Km: it is the turnover number divided by the Michaelis constant.

B1: Ideonella sakaiensis 201-F6 MHETase (Is MHETase) variant S131G (parent Genbank GAP38911.1), C-terminal His tag (Pseudideonella sakaiensis; S131G) (protein)
chain: CAGGGSTPLPLPQQQPPQQEPPPPPVPLASRAACEALKDGNGDMVWPNAATVVEVAAWRDAAPATASAAALPEHCEVSGAIAKRTGIDGYPYEIKFRLRMPAEWNGRFFMEGGGGTNGSLSAATGSIGGGQIASALSRNFATIATDGGHDNAVNDNPDALGTVAFGLDPQARLDMGYNSYDQVTQAGKAAVARFYGRAADKSYFIGCSEGGREGMMLSQRFPSHYDGIVAGAPGYQLPKAGISGAWTTQSLAPAAVGLDAQGVPLINKSFSDADLHLLSQAILGTCDALDGLADGIVDNYRACQAAFDPATAANPANGQALQCVGAKTADCLSPVQVTAIKRAMAGPVNSAGTPLYNRWAWDAGMSGLSGTTYNQGWRSWWLGSFNSSANNAQRVSGFSARSWLVDFATPPEPMPMTQVAARMMKFDFDIDPLKIWATSGQFTQSSMDWHGATSTDLAAFRDRGGKMILYHGMSDAAFSALDTADYYERLGAAMPGAAGFARLFLVPGMNHCSGGPGTDRFDMLTPLVAWVERGEAPDQISAWSGTPGYFGVAARTRPLCPYPQIARYKGSGDINTEANFACAAPP
As for B1, the Km was 995.10 ± 19.58 µM, the maximal velocity (Vmax) stood at 27.3 µM/min and the kcat/Km was found to be 90000 M⁻¹ s⁻¹.

The values are drawn from patent US20230151340A1, “PLASTIC DEGRADING FUSION PROTEINS AND METHODS OF USING THE SAME” (Alliance for Sustainable Energy, LLC, priority 2020, published 2023).
